Reference: patent US8541175B2, “Detection of molecular interactions using a reduced affinity enzyme complementation reporter system” (The Board of Trustees of the Leland Stanford Junior …, priority 2006, dated 2013)

Test system: EGFR on the cell surface
Test: EGFR internalization by flow cytometry, C2C12 cells overexpressing wild-type EGFR and ErbB2
Type: cell-based
Settings: 5 ug/ml antibody 10 min prior to EGF
Text: To test this hypothesis, the wildtype EGFR and wildtype ErbB2 were co-expressed in cells and EGFR on the cell surface was quantitated by flow cytometry (FIG. 7B).
Isoproterenol, propranolol and rapamycin were from Sigma.

Substance: Herceptin: monoclonal antibody against ErbB2, binds the juxtamembrane domain of ErbB2
- EGFR on the cell surface upon EGF treatment: rapid loss of EGFR from the cell surface
